Target: membrane-bound ligands (TGF-alpha and Epiregulin) on HT-29 cells
Assay: cell-based or functional assay

Mean Ringspot Total Intensity of Fluorescence (internalization into HT-29 cells), 40 ug/mL, 0 min post addition: 89
Mean Ringspot Total Intensity of Fluorescence (internalization into HT-29 cells), 40 ug/mL, 5 min post addition: 261
Mean Ringspot Total Intensity of Fluorescence (internalization into HT-29 cells), 40 ug/mL, 15 min post addition: 717
Mean Ringspot Total Intensity of Fluorescence (internalization into HT-29 cells), 40 ug/mL, 30 min post addition: 1490
Mean Ringspot Total Intensity of Fluorescence (internalization into HT-29 cells), 40 ug/mL, 60 min post addition: 4130
Mean Ringspot Total Intensity of Fluorescence (internalization into HT-29 cells), 40 ug/mL, 120 min post addition: 4450
Mean Ringspot Total Intensity of Fluorescence (internalization into HT-29 cells), dose 0.34 ug/ml, 2 h at 37 C: 2430
Mean Ringspot Total Intensity of Fluorescence (internalization into HT-29 cells), dose 0.69 ug/ml, 2 h at 37 C: 3440
Mean Ringspot Total Intensity of Fluorescence (internalization into HT-29 cells), dose 1.38 ug/ml, 2 h at 37 C: 4350
Mean Ringspot Total Intensity of Fluorescence (internalization into HT-29 cells), dose 2.75 ug/ml, 2 h at 37 C: 6500
Mean Ringspot Total Intensity of Fluorescence (internalization into HT-29 cells), dose 5.5 ug/ml, 2 h at 37 C: 8470
Mean Ringspot Total Intensity of Fluorescence (internalization into HT-29 cells), dose 11 ug/ml, 2 h at 37 C: 11500
Mean Ringspot Total Intensity of Fluorescence (internalization into HT-29 cells), dose 22 ug/ml, 2 h at 37 C: 15100
Mean Ringspot Total Intensity of Fluorescence (internalization into HT-29 cells), dose 44 ug/ml, 2 h at 37 C: 17500
B1: Antibody I (antibody, human IgG4 S228P, kappa, F234A L235A)
heavy: QVQLVQSGAEVKKPGSSVKVSCKASGYTFTDAYINWVRQAPGQGLEWMGWIWPGPVITYYNPKFKGRVTITADKSTSTAYMELSSLRSEDTAVYYCARREVLSPFAYWGQGTTVTVSSASTKGPSVFPLAPCSRSTSESTAALGCLVKDYFPEPVTVSWNSGALTSGVHTFPAVLQSSGLYSLSSVVTVPSSSLGTKTYTCNVDHKPSNTKVDKRVESKYGPPCPPCPAPEAAGGPSVFLFPPKPKDTLMISRTPEVTCVVVDVSQEDPEVQFNWYVDGVEVHNAKTKPREEQFNSTYRVVSVLTVLHQDWLNGKEYKCKVSNKGLPSSIEKTISKAKGQPREPQVYTLPPSQEEMTKNQVSLTCLVKGFYPSDIAVEWESNGQPENNYKTTPPVLDSDGSFFLYSRLTVDKSRWQEGNVFSCSVMHEALHNHYTQKSLSLSLG
light: DIVMTQSPDSLAVSLGERATINCRSSQSIVHSTGNTYLEWYQQKPGQPPKLLIYKVSNRFSGVPDRFSGSGSGTDFTLTISSLQAEDVAVYYCFHGTHVPYTFGGGTKVEIKRTVAAPSVFIFPPSDEQLKSGTASVVCLLNNFYPREAKVQWKVDNALQSGNSQESVTEQDSKDSTYSLSSTLTLSKADYEKHKVYACEVTHQGLSSPVTKSFNRGEC

— patent US20210403547A1
